The test system of data set [1] is ovarian cancer cell line SKOV3i.p.1. In words: Unstaged (prophylactic) orthotopic murine model of ovarian cancer. Format: in vivo, nude mice. The following applies: i.p. once a week, 6 doses; 54 days after inoculation. The protocol:
1. Tumor cells were inoculated intraperitoneally (i.p.) into T-cell deficient nude mice at 2×10^6 cells per mouse. […] Antibody was dosed once a week for a total of 6 doses. Percent survival was calculated over time.

The conditions of data set [2]: cancer patients, cited from earlier work.

Like-named read-outs stand apart in the source and are kept apart here.

Regarding “Herceptin®: anti-HER2 monoclonal antibody (Genentech)”, the percent survival entry in data set [1] is on record as “not significantly greater than that observed for the untreated control group”.
Regarding “recombinant human native IL-2: recombinant human native IL-2 from published literature (Gustavson 1998)”, the figures for the “average (% CV) AUC” value in data set [2] (0.3 MU SC), in data set [2] (1 MU SC) and in data set [2] (3 MU SC) were 120 (38) U*hr/ml, 177 (36) U*hr/ml and 359 (46) U*hr/ml, respectively.

(Values after patent US8277810B2, “Antagonist anti-CD40 antibodies” (Novartis Vaccines & Diagnostics, Inc., priority 2003, dated 2012).)
